The source of these data is ChEMBL document CHEMBL3886191, “Optically active pyrazolylaminoquinazoline, and pharmaceutical compositions and methods of use thereof” (2016).

Chains of the proteins cited; added tags and fusions are not shown.
UniProt P0DMS8, whole entry: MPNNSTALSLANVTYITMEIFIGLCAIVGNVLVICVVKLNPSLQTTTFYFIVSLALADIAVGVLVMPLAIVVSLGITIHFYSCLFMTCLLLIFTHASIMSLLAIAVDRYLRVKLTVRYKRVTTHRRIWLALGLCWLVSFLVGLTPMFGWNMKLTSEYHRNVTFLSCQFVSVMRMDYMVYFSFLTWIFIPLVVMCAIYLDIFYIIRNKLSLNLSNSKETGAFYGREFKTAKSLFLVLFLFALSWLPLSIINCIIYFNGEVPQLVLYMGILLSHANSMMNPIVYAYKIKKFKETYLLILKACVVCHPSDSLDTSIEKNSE

For the assay, the target named is Adenosine receptor A3 (Homo sapiens, UniProt P0DMS8). The assay can be described thus: Incubations of a range of concentration of each compound were carried out in duplicates for 1 h at 25° C. in 25 mM HEPES, pH 7.4, 5 mM MgCl2, 1 mM CaCl2, 0.1% BSA, in the presence of 0.5 nM [125I] AB-MECA. Non-specific binding was determined in the presence of 1 uM IB-MECA. It counts as cell-based, CHO-K1.

As a reminder, the Kd is a measure of binding affinity in units of concentration.

In the case of `Cc1cc(Nc2nc([C@@H](O)c3ccc(F)cc3)nc3ccccc23)n[nH]1`, the Kd was 1.42 nM. The value for `Cc1cc(Nc2nc([C@H](O)c3ccc(F)cc3)nc3ccccc23)n[nH]1` was 28.5 nM.
